Results as given in ChEMBL document CHEMBL5518218, “Discovery of Novel PD-L1 Small-Molecular Inhibitors with Potent In Vivo Anti-tumor Immune Activity” (J Med Chem, 2024).
Activity calls are given as the source filed them. The calls are words filed in the database; no cut-off is given here.

Protein sequences, listed by entry. Tags and fused reporters are not part of them.
UniProt Q15116, whole entry: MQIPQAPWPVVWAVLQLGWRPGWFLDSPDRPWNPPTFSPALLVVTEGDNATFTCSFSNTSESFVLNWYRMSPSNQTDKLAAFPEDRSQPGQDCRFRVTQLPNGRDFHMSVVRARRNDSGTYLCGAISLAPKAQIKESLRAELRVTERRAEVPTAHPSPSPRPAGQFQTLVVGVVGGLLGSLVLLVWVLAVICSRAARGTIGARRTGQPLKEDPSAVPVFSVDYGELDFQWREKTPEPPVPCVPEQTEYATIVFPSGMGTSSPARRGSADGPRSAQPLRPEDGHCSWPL

Target: Programmed cell death protein 1 (Homo sapiens) (UniProt Q15116)
Assay: Inhibition of human PD-1 expressed in Jurkat T cells co-transfected with NFAT by automated microplate spectrophotometer analysis
Format: cell-based

## CCN(CC)C(=O)CCOc1cccc(-c2cccc(COc3cc(OCc4ccc5nonc5c4)c(CN[C@H](CO)C(=O)O)cc3Cl)c2Cl)c1
  inhibition: inactive
